Results taken from publication PMC7595441 (2020).

Target: amyloid-beta 42 (HiLyte Fluor labeled) Aβ42 (Homo sapiens)

B1: RAGE G82S (protein)
chain: AQNITARIGEPLVLKCKGAPKKPPQRLEWKLNTGRTEAWKVLSPQGGGPWDSVARVLPNSSLFLPAVGIQDEGIFRCQAMNRNGKETKSNYRVRVYQIPGKPEIVDSASELTAGVPNKVGTCVSEGSYPAGTLSWHLDGKPLVPNEKGVSVKEQTRRHPETGLFTLQSELMVTPARGGDPRPTFSCSFSPGLPRHRALRTAPIQPRVWEPVPLEEVQLVVEPEGGAVAPGGTVTLTCEVPAQPSPQIHWMKDGVPLPLPPSPVLILPEIGPQDQGTYSCVATHSSHGPQESRAVSISIIEPGEEGPTAGSVGGSGLGTLA
Kd: 45 nM
